AlphaSeq binding of Ab-14 light chain variants to a spike HR2 peptide

Data: MIT Lincoln Laboratory AlphaSeq set, Li et al. 2023, doi:10.1038/s41467-023-39022-2, as distributed in FLAb.

Antigen: PDVDLGDISGINAS, a 14-residue peptide of the SARS-CoV-2 spike HR2 region.

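Phage display of a naive human antibody library on the peptide gave the parent. The variants were designed computationally from a first round of random CDR variants and then made and measured. Several design methods are mixed in this list. The scFvs were displayed on barcoded MATa yeast, the peptide on MATalpha yeast. After mating in shaken culture at 30 °C for 16 h, diploids were selected and their barcode pairs sequenced. Scores were corrected for input abundance and mapped to Kd with protein pairs of known affinity run in the same pool. Mating was done six times.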

Parent scFv Ab-14: VH joined to VL by the linker GGGGSGGGGSGGGGS. Changes lie in the light chain CDRs alone.
VH: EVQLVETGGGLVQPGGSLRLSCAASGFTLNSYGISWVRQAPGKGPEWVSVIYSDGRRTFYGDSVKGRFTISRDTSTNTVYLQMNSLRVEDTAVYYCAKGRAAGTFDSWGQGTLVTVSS
VL: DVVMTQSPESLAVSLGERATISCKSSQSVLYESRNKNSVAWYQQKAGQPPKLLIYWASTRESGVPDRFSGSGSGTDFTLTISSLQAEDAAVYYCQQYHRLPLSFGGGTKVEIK

The parent's light chain CDRs are KSSQSVLYESRNKNSVA, WASTRES, QQYHRLPLS; each variant's own CDRs replace them letter for letter. Affinities are written as log10 Kd with Kd in nM; a lower number is a better binder. The mean shown is taken over the replicates in which the pair was detected. "nd" means that the variant was in the library but no mating with the target was seen in any replicate; the authors take this as a sign of poor binding, and no number exists. The list is sorted by this average, lowest first, undetected variants last. As a blank, each scFv also met three strains without target: over all light chain designs, 4% of these pairings were detected, typically at 2.64 and seldom below 1.59. The control count says in how many pairings with the empty strains this scFv gave a signal.

CDR-L1	CDR-L2	CDR-L3	mean log10 Kd (nM)	detected	signal with controls
KVSPSVLYESRNKNAVA	EASTRES	QQYHRLPLS	-0.84	6/6	1/18
KLSQSQLYESRNKNSVA	DASTRES	QQYHRLPLS	-0.60	6/6	1/18
KLSQSEPYESRNKNSVA	NASYRMS	QQYHRLPLS	-0.45	6/6	0/18
KSSQSWLYESRNKNSVA	NASTRES	QQYHRLPLS	-0.43	6/6	0/18
KLSQSMLYDSRNKNSVA	NASTRES	QQYHRLPLS	-0.34	6/6	1/18
KFSQSVLYESRNKNSVA	NASQRES	QQYHRLPLS	-0.33	6/6	3/18
KLSWSMLYESRNWNSVA	DASTRES	QQYHRLPLS	-0.21	6/6	0/18
KLSQSMLYESRNSNSVA	NASQRES	QQYHRLPLS	-0.21	6/6	3/18
KLQQSVMYESRNKNSVA	EASTRES	QQYHRLPLS	-0.17	6/6	0/18
KLSQSVLPESRNKNSVA	NASTRES	QQYHRLPLS	-0.16	6/6	1/18
KLSQSVLYESRNCNNVA	NASTRES	QQYHRLPLS	-0.16	6/6	2/18
KLQMSFLYESRNKNSVA	NASTRES	QQYHRLPLS	-0.16	6/6	0/18
NIVEDEAGDQKNSQNIA	SVDQRED	QQYQKLPLM	-0.15	6/6	0/18
KLEQSGLYESRNKNSVA	NASTRES	QQYHRLPLS	-0.14	6/6	0/18
KLQQSVEYESRNKNSVA	QASTRES	QQYHRLPLS	-0.10	6/6	0/18
VLSQSVLYESRNKNSVA	NASTREQ	QQYHRLPLS	-0.08	6/6	1/18
KSGQGVDYESRNKNSVA	GASTRES	QQYHRLPLH	-0.06	6/6	1/18
KHSQSWIYESRNKNSVA	GASTRES	QQYHRLPLS	-0.05	6/6	0/18
KMSQSQLYESRNKNSVA	NASTRES	QQYHRLPLS	0.01	6/6	0/18
KLSQSQLYESRNKNSVA	NASTRED	QQYHRLPLS	0.01	6/6	0/18
KLSQSWPYESRNKNSVA	NASQRES	QQYHRLPLS	0.09	6/6	2/18
VMQMQQDRMQDAAKNIA	GVDMRET	QQYFRLPFL	0.11	6/6	0/18
KLQQSTLYESRNKNSVA	HASTRES	QQYHRLPLS	0.11	6/6	1/18
KLGQSVAMTSRNSNNVA	DLNERER	QQYHRLPLS	0.12	6/6	1/18
HSSPSVLYESRNKNSVA	NASTRES	QQYHRLPLV	0.13	6/6	0/18
KSSQSVLYESRNKNNVA	HASTRED	QQYHRLPLS	0.19	6/6	0/18
KLSQSVEYESRNKWSVA	NASTRES	QQYHRLPLS	0.22	6/6	2/18
KSSQSVEMESRNANSVA	DASTRES	QQYHRLPLS	0.25	6/6	1/18
KFSQMVNSMSVSHSAVA	EMSTRED	QQYNRLPLA	0.27	6/6	1/18
NIYQAMHTLSQTKDNVA	DVEERGS	QQYFRLPLS	0.27	6/6	0/18
KLSQSELYEDRNINSVA	NASQRCS	QQYHRLPLS	0.33	6/6	1/18
KLSMTHLMESVNRNSVA	ELVTRMR	QQYNRLPLS	0.33	6/6	0/18
KSGQGVLEESRNKNSVA	GASQRLS	QQYHRLPLS	0.37	6/6	0/18
MFSQSVMYGSFLRNSVA	QTSTRES	QQYDRLPLS	0.39	6/6	0/18
MFSQSVMMGSFYRNSVA	QTSTRES	QQYDRLPLS	0.39	6/6	1/18
KLSMSDLMESRNWNSVA	HASTREE	QQYHRLPLS	0.51	6/6	2/18

The remaining entries, values ahead:

mean log10 Kd (nM)	detected	signal with controls	CDR-L1	CDR-L2	CDR-L3
0.52	6/6	1/18	KLSQVTHSELKVKNSIA	EMVTREK	QQYDRLPLS
0.54	6/6	2/18	KLQQQWLYESRNKNSVA	SASTREE	QQYHRLPLS
0.70	6/6	1/18	KLTSVTGTEKVHGNNVA	EMETREK	QQYNRLPLS
0.77	6/6	0/18	KFSQEYLYESRNKNSVA	NASCRES	QQYWRLPLS
0.80	6/6	1/18	KSSISYLGLKRNKNSVA	EASTRES	QQYHRLPLS
0.93	6/6	2/18	MISQLFMYGTRNYNSIA	QASTREK	QQYDRLPLI
0.99	6/6	0/18	TLAQGIYEPVRKSNNVA	EASHVTD	QQYERLPLE
1.06	6/6	0/18	SLTAHVEEKKGAESSVA	EAVMLES	QQYHQLPLM
1.08	6/6	0/18	MMSQVTGMESRHRNNVA	QTSTREP	QQYDRLPLI
1.09	6/6	0/18	KLGSMVLLEYGGKNSIA	QQSTREE	QQYDRLPLS
1.11	6/6	1/18	HLHTVNYTQAIGTNSIA	DANLHVT	QQYFRLPIM
1.17	6/6	2/18	KLSQSVLYESRNKNSVA	CASTRES	QQYLRLPLS
1.21	6/6	0/18	KLSMTAEMEIKNRNSVA	ELVTRMS	QQYNRLPLS
1.22	6/6	0/18	KSSLSVLPESRNKNSVA	WASTRES	QQYVRLPLS
1.23	6/6	1/18	KSSQSFLYETLNKNSVA	WASTRES	QQYHRLPLS
1.31	4/6	0/18	TLSQVQGMEMHNRDNVA	DLSTRGN	QQYDRLPLS
1.36	5/6	0/18	KLTNVTGTEKVLGNNVA	EMETREE	QQYNRLPLS
1.45	6/6	0/18	TIGQMFNGESRMRNSVA	QASTRES	QSYDRLPLS
1.49	6/6	0/18	KSSQSWLYESRNKNSVA	GASTRYS	QQYHRLPLS
1.54	6/6	3/18	TISQMTSLFSQSINNVA	EVSMRES	QQYDRLPLM
1.56	2/6	0/18	KSSQSVEIESGNTNSVA	WASLRES	QQYFRLPLS
1.57	6/6	1/18	KWSQSVPMGERNKNSVA	MAHKRES	QQYHRLPLS
1.58	6/6	4/18	QLYAVQDMTSKNNNSVA	EQSTREN	QQYHRLPLS
1.59	6/6	0/18	NLSMELEDMGVKTKSIA	ENQLTEY	QQYARLPLM
1.60	6/6	1/18	HMSALTLQGMYHRNSVA	QMTTREN	QQYDHLPLS
1.64	6/6	1/18	KSSQSVLYESRNENSVA	YASLRDS	QQYHRLPLS
1.72	6/6	0/18	TISSVMNHMTRIDNNVA	NQDMREK	QQYDRLPLS
1.77	6/6	2/18	MLGDVAHGLSRKENSVA	DNDQRNS	QQYDRLPLS
1.82	4/6	0/18	TISYSALMTGLNRNSVA	QAEERLD	QQYNRLPLS
2.08	2/6	1/18	KMSQSVLYESANKNSVA	WASTRES	QQYHCLPLS
2.19	3/6	1/18	HITMGMYVAGRHHSSIA	QAETRAK	QQYDRLPLI
2.68	5/6	1/18	ALALTLWQVDSQMNNIA	EGMLRES	QQYNRLPLN
2.81	2/6	1/18	RIDAYPPMQGNNIDSIA	ENAITLH	QQYANLPLS
nd	0/6	0/18	KITFQMMSSNAHDYSIA	QTNVYSD	QQYGRLPLD
nd	0/6	0/18	KLSISYLYESRNKNSVA	AASTRES	QQYHRLPLS
nd	0/6	0/18	KLFGGILEQERIDYSIA	YGTLSEV	QQYDRLPLS

Of ten entries with the parent sequence, four were seen in most replicates (averages 0.34 to 2.37), three in one and three in none, so single entries are noisy. The authors' rule: three or more of the six replicates give a measured affinity, fewer mean a poor binder. Values of this round are not directly comparable with the first-round values of the same sequences.